Experimental data taken from patent publication US20150198612A1, “Isotopic Labelling of Proteins” (UNIVERSITY OF DUNDEE, priority 2012, published 2015).

Test system: Cyp4a
Test: Western blot of liver drug metabolism enzymes, Cyp4a
Details: C57BL/6 mice liver, once daily i.p. for 3 days, single inducer

- Cyp4a expression: increased
Structure (SMILES): CO[C@H]1/C=C/O[C@@]2(C)Oc3c(C)c(O)c4c(O)c(c(/C=N/N5CCN(C)CC5)c(O)c4c3C2=O)NC(=O)/C(C)=C\C=C\[C@H](C)[C@H](O)[C@@H](C)[C@@H](O)[C@@H](C)[C@H](OC(C)=O)[C@@H]1C [RIF, rafamycin]
